Target: Bromodomain-containing protein 2 (Homo sapiens, UniProt P25440)
Test: Displacement of FAM-labeled ZBA248 from BRD2 BD2 (349 to 460 amino acid residues) (unknown origin) expressed in Rosetta2 DE3 cells after 30 mins by fluorescence polarization assay

Amino acid sequences for entries named in this document (tags omitted).
UniProt P25440, whole entry: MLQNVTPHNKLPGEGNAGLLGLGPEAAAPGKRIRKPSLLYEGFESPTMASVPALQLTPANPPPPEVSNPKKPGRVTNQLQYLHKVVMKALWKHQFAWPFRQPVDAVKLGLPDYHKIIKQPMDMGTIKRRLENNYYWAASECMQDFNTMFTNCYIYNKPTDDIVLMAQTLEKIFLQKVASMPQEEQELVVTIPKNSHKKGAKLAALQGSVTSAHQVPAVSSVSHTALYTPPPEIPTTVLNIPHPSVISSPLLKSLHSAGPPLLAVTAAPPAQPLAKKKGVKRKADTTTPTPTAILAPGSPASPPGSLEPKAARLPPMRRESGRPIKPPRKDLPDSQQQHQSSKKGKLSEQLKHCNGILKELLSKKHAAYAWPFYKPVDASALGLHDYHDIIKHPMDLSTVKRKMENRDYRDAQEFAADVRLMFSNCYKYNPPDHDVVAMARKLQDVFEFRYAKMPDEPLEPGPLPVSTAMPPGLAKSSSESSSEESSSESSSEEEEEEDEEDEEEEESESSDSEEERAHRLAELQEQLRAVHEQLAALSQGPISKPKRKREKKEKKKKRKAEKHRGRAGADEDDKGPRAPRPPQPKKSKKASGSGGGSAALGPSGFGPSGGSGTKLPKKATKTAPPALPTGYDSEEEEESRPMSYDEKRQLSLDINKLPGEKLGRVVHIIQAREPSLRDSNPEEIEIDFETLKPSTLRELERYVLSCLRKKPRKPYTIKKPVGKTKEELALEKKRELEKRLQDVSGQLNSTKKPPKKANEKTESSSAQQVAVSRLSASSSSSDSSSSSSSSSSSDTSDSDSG

Cc1sc2c(c1C)C(c1ccc(Cl)cc1)=N[C@@H](CC(=O)Nc1ccc(O)cc1)c1nnc(C)n1-2 [BIRABRESIB]
Ki: 5.4 nM

Reference: ChEMBL document CHEMBL3580597 (J Med Chem, 2015)
